In general, GI50 refers to the concentration at which growth is held to half of that of the control.

This experiment has as its system BT-474. Kind of experiment: Antiproliferative activity against human BT-474 cells assessed as growth inhibition incubated for 5 days by IncuCyte live-cell imaging analysis. Type of experiment: functional. The conditions noted are these: BT-474, 120 h, time 5 day.

SMILES strings stand for the structures.

`CC(C)NC[C@@H](C(=O)N1CCN(c2ncnc3c2[C@H](C)C[C@H]3O)CC1)c1ccc(Cl)cc1` [IPATASERTIB]: the GI50 was 300 nM.

(Values after ChEMBL document CHEMBL5053555, “Design, Synthesis, and Evaluation of Potent, Selective, and Bioavailable AKT Kinase Degraders” (J Med Chem, 2021).)
